# Target: Mu-type opioid receptor (Mus musculus) (UniProt P42866)
# Protein sequences, listed by entry. Tags and fused reporters are not part of them.
# UniProt P42866, whole entry: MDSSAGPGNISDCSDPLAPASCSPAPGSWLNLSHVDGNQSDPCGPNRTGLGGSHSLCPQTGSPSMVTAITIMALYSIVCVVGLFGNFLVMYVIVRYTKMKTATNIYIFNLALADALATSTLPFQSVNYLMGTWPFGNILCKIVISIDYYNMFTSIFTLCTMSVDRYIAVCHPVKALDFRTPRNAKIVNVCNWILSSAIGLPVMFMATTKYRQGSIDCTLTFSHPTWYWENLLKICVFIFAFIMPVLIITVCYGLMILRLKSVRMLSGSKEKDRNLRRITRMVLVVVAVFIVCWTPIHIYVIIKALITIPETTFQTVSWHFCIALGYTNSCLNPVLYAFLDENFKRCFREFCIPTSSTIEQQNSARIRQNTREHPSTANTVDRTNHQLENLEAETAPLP
# Assay: Partial agonist activity at mouse MOR expressed in HEK293T cells assessed as Nb33 recruitment by BRET assay relative to control
# Assay type: functional, cell-based
# Conditions: filed as partial agonist
compound,measurement,value
CN1CC[C@]23c4c5ccc(O)c4O[C@H]2[C@@H](O)C=C[C@H]3[C@H]1C5 [MORPHINE],Emax,71%
